Earlier results as cited in patent US6916783B2, “Methods for accelerating bone and cartilage growth and repair” (University of Southern California, priority 1998, dated 2005).

Molecular target: T1, AT2 receptor (Homo sapiens, UniProt P50052)
T1 sequence (P50052 1-363): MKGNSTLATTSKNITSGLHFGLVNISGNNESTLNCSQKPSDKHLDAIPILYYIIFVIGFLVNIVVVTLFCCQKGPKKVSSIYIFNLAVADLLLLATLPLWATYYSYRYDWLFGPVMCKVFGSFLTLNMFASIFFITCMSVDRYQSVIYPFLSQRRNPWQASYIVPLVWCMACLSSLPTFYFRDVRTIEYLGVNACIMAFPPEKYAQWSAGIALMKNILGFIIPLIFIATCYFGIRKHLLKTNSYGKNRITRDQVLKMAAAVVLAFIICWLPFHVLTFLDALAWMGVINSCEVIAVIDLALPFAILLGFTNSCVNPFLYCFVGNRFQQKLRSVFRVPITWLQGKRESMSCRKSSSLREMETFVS
Conditions: experimental models tested (Catalioto 1994; Bryson 1992); cited from earlier work

Substance: Asp-Arg-Val-Tyr-Ile-Xaa-Pro-Phe [(p-NH2-Phe)6-AII]
- binding characteristics: comparable to AT2 antagonists
